The results in this text go back to paper PMC12143788.

In this assay the target is GST-tagged AP2 core comprising α/β-adaptin trunks, μ2, and σ2 (UniProt P18484). As to the kind of experiment: pull-down; 100 μg recombinant GST fusion protein on beads with 0.2 μM and 2 μM recombinant synuclein in 500 μl pulldown buffer (250 mM NaCl, 10 mM Tris pH 8.7, 2 mM DTT), 2 h at 4 °C; washes 3 × 15 min with 500 mM NaCl; Western blot, band intensity in arbitrary units. (In general: Immunoblotting shows a protein as a band on a membrane.)

Regarding “recombinant full-length human α-synuclein (a.a. 1–140) (from UniProt P37840 1-140) (natural protein)”, the band intensity of α-synuclein pulled down, at 0.2 μM α-synuclein is 3670 AU and the band intensity of α-synuclein pulled down, at 2 μM α-synuclein amounted to 14600 AU.
